The chains behind the UniProt entries cited, without tags or fusion partners.
UniProt I3LQD3, entry or part of it: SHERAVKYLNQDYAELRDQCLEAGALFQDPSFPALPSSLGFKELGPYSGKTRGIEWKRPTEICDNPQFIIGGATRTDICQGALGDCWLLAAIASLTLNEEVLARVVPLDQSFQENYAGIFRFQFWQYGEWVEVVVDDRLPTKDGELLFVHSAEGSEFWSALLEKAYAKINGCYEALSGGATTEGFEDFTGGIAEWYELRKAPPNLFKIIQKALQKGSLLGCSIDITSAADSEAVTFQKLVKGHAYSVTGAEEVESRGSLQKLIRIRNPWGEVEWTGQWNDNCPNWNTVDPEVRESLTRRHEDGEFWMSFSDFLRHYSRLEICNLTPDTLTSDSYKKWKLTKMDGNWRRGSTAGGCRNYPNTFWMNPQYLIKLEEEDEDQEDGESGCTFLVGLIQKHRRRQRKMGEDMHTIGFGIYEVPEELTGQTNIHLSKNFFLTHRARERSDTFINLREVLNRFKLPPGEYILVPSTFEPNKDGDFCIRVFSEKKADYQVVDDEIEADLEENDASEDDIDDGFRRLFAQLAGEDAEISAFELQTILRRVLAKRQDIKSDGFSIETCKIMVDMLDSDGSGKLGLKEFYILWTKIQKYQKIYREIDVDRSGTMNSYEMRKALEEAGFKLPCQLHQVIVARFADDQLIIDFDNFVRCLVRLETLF

According to patent US9539298B2, “Lissencephaly therapeutic agent” (OSAKA CITY UNIVERSITY, priority 2010, dated 2017):

Target: m-calpain (derived from porcine kidney) (Sus scrofa, UniProt I3LQD3)
Assay: Measurement of inhibitory activity against m-calpain
Assay type: biochemical
Settings: casein substrate, 30° C., 60 minutes; read-out: enzyme inhibitory activities (μM) m-calpain
Procedure: More specifically, 200 μL of a reaction solution containing 0.5 mg/mL casein, 50 mM Tris-HCl buffer (pH 7.4), 20 mM dithiothreitol and 1.0 nmol μ-calpain (derived from human red blood cells, Cosmo Bio Co., Ltd.) or m-calpain (derived from porcine kidney, Cosmo Bio Co., Ltd.) was added to individual 2.5 μL portions of DMSO solution containing a varying concentration of a test sample in a 96-well plate. Then, 50 μL of 20 mM aqueous calcium chloride was added thereto, and reaction was performed at 30° C. for 60 minutes. 100 μL of the reaction solution was transferred to another 96-well plate, and purified water (50 μL) and 50% aqueous solution (100 μL) of Protein Assay Dye Reagent (available from Bio-Rad Laboratories, Inc.; catalogue No. 500-600) were added thereto. […] The absorbance of a reaction mixture prepared in the same manner as mentioned above, except that a DMSO solution containing no sample was used as a control value; and the absorbance of a reaction mixture prepared in the same manner as mentioned above, except that a 1 mM aqueous EDTA solution (50 μL) was used in place of 20 mM aqueous calcium chloride, was used as a blank value. […] Inhibition rate (%){1−(measured value−blank test value)/(control value−blank test value)}×100

Row | IC50 [µM] | SMILES
1 | 0.11 | CCNC(=O)C(=O)[C@H](Cc1ccccc1)NC(=O)[C@H](CC(C)C)NC(=O)OCCOC [compound 1, ((1S)-1-((((1S)-1-Benzyl-2,3-dioxo-3-(ethylamino)propyl)amino)carbonyl)-3-methylbutyl) carbamic acid 2-methoxyethyl ester]
2 | 0.1 | CC(C)C[C@H](NC(=O)O[C@H]1CCOC1)C(=O)N[C@@H](CCc1ccccc1)C(=O)C(=O)NC1CC1 [compound 16]
3 | 0.017 | CC(C)C[C@H](NC(=O)OCCc1ccccn1)C(=O)N[C@@H](Cc1ccccc1)C(=O)C(=O)NC1CC1 [compound 24, ((1S)-1-((((1S)-1-Benzyl-3-(cyclopropylamino)-2,3-dioxopropyl)amino)carbonyl)-3-methylbutyl)carbamic acid 2-(pyridin-2-yl)ethyl ester]
4 | 0.2 | CCNC(=O)C(=O)[C@H](CCc1ccccc1)NC(=O)[C@H](CC(C)C)NC(=O)O[C@H]1CCOC1 [compound 14, ((1S)-1-((((1S)-2,3-Dioxo-3-ethylamino-1-(phenylethyl)propyl)amino)carbonyl)-3-methylbutyl)carbamic acid (3S)-tetrahydrofuran-3-yl ester]
5 | 0.16 | COCCOCCOC(=O)N[C@@H](CC(C)C)C(=O)N[C@@H](CC(C)C)C(=O)C(=O)NCCOc1ccccc1 [compound 22, ((1S)-1-((((1S)-2,3-Dioxo-1-(2-methylpropyl)-3-(2-phenoxyethyl)aminopropyl)amino)carbonyl)-3-methylbutyl) carbamic acid 5-methoxy-3-oxapentyl ester]
6 | 0.07 | CCCNC(=O)C(=O)[C@H](Cc1ccccc1)NC(=O)[C@H](CC(C)C)NC(=O)OCCOC [compound 7, ((1S)-1-((((1S)-1-Benzyl-2,3-dioxo-3-(propylamino)propyl)amino)carbonyl)-3-methylbutyl)carbamic acid 2-methoxyethyl ester]
7 | 0.16 | CCNC(=O)C(=O)[C@H](Cc1ccccc1)NC(=O)[C@H](CC(C)C)NC(=O)OC1CCOCC1 [compound 3, ((1S)-1-((((1S)-1-Benzyl-2,3-dioxo-3-(ethylamino)propyl)amino)carbonyl)-3-methylbutyl)carbamic acid tetrahydro-4H-pyran-4-yl ester]
8 | 0.2 | CCNC(=O)C(=O)[C@H](CCc1ccccc1)NC(=O)[C@H](CC(C)C)NC(=O)OCCOC [compound 13, ((1S)-1-((((1S)-2,3-Dioxo-3-ethylamino-1-(phenylethyl)propyl)amino)carbonyl)-3-methylbutyl)carbamic acid 2-methoxyethyl ester]
9 | 0.05 | CC(C)C[C@H](NC(=O)O[C@H]1CCOC1)C(=O)N[C@@H](Cc1ccccc1)C(=O)C(=O)NC1CC1 [compound 5, ((1S)-1-((((1S)-1-Benzyl-3-(cyclopropylamino)-2,3-dioxopropyl)amino)carbonyl)-3-methylbutyl)carbamic acid (3S)-tetrahydrofuran-3-yl ester]
10 | 0.11 | CCNC(=O)C(=O)[C@H](Cc1ccccc1)NC(=O)[C@H](CC(C)C)NC(=O)O[C@H]1CCOC1 [compound 2, ((1S)-1-((((1S)-1-Benzyl-2,3-dioxo-3-(ethylamino)propyl)amino)carbonyl)-3-methylbutyl)carbamic acid (3S)-tetrahydrofuran-3-yl ester]
11 | 0.12 | COCCOC(=O)N[C@@H](CC(C)C)C(=O)N[C@@H](Cc1ccccc1)C(=O)C(=O)NC1Cc2ccccc2C1 [compound 11, ((1S)-1-((((1S)-1-Benzyl-2,3-dioxo-3-(2-indanylamino)propyl)amino)carbonyl)-3-methylbutyl)carbamic acid 2-methoxyethyl ester]
12 | 0.11 | COCCNC(=O)C(=O)[C@H](Cc1ccccc1)NC(=O)[C@H](CC(C)C)NC(=O)OCCOC [compound 12, ((1S)-1-((((1S)-1-Benzyl-2,3-dioxo-3-(2-methoxyethylamino)propyl)amino)carbonyl)-3-methylbutyl)carbamic acid 2-methoxyethyl ester]
13 | 0.18 | COCCOCCOC(=O)N[C@@H](CC(C)C)C(=O)NC(Cc1ccccc1)C(=O)C(N)=O (mixture of isomers) [compound 23, ((1S)-1-((((1RS)-3-Amino-1-benzyl-2,3-dioxopropyl)amino)carbonyl)-3-methylbutyl)carbamic acid 5-methoxy-3-oxapentyl ester]
14 | 0.34 | COCCOC(=O)N[C@@H](CC(C)C)C(=O)N[C@@H](Cc1ccccc1)C(=O)C(=O)NCC(F)(F)F [compound 10, ((1S)-1-((((1S)-1-Benzyl-2,3-dioxo-3-(2,2,2-trifluoroethylamino)propyl)amino)carbonyl)-3-methylbutyl)carbamic acid 2-methoxyethyl ester]
15 | 0.14 | CCCCNC(=O)C(=O)[C@H](Cc1ccccc1)NC(=O)[C@H](CC(C)C)NC(=O)OCCOC [compound 9, ((1S)-1-((((1S)-1-Benzyl-3-butylamino-2,3-dioxopropyl)amino)carbonyl)-3-methylbutyl)carbamic acid 2-methoxyethyl ester]
16 | 0.11 | COCCOC(=O)N[C@@H](CC(C)C)C(=O)N[C@@H](CC(C)C)C(=O)C(=O)NCCOc1ccccc1 [compound 21, ((1S)-1-((((1S)-2,3-Dioxo-1-(2-methylpropyl)-3-(2-phenoxyethyl)aminopropyl)amino)carbonyl)-3-methylbutyl)carbamic acid 2-methoxyethyl ester]
17 | 0.14 | COCCOC(=O)N[C@@H](CC(C)C)C(=O)N[C@@H](CCc1ccccc1)C(=O)C(=O)NC1CC1 [compound 15, ((1S)-1-((((1S)-2,3-Dioxo-3-cyclopropylamino-1-(phenylethyl)propyl)amino)carbonyl)-3-methylbutyl)carbamic acid 2-methoxyethyl ester]
18 | 0.13 | CC(C)C[C@H](NC(=O)OC1CCOCC1)C(=O)N[C@@H](Cc1ccccc1)C(=O)C(=O)NC1CC1 [compound 6, ((1S)-1-((((1S)-1-Benzyl-3-cyclopropylamino-2,3-dioxopropyl)amino)carbonyl)-3-methylbutyl)carbamic acid tetrahydro-4H-pyran-4-yl ester]
19 | 0.08 | COCCOC(=O)N[C@@H](CC(C)C)C(=O)N[C@@H](Cc1ccccc1)C(=O)C(=O)NC1CCC1 [compound 8, ((1S)-1-((((1S)-1-Benzyl-2,3-dioxo-3-(cyclobutylamino)propyl)amino)carbonyl)-3-methylbutyl)carbamic acid 2-methoxyethyl ester]
